From patent US20150010932A1, “METHODS FOR ASSAYING PROTEIN-PROTEIN INTERACTIONS” (Salk Institute for Biological Studies, priority 2013, published 2015)

Amino acid sequences for entries named in this document (tags omitted). Residues count along the entry.
UniProt Q00987, 2-108 limits assumed: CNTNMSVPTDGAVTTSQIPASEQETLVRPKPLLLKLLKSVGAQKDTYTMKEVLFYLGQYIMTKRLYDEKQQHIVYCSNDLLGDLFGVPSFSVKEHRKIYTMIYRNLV
UniProt O15151, 2-111 limits assumed: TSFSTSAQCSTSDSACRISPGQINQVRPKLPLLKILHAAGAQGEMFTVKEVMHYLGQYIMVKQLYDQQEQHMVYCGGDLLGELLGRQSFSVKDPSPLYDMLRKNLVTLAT

Columns and labels:
[1] = target: T1, p53-Mdm2 complexes (Homo sapiens, UniProt Q00987); experiment: Real-time BiLC (ReBiL) assay in living cells, p53-Mdm2 reporter (Saos-2 134-385); type: cell-based
[2] = target: T1, p53-Mdm2 complexes; experiment: BiLC assay using cell lysates, p53-Mdm2; type: biochemical
[3] = target: T2, p53-Mdm4 complexes (Homo sapiens, UniProt O15151); experiment: Real-time BiLC (ReBiL) assay in living cells, p53-Mdm4 reporter (Saos-2 134-354); details: Saos-2 134-354, doxycycline withdrawal; for Disruption of pre-formed p53-Mdm4 complexes in living cells, 10% FBS: SAH peptide protocol, 10% FBS media
[4] = tested on: Saos-2 cells; experiment: Lactate dehydrogenase (LDH) leakage assay, Saos-2 cells; details: 25 μM and 10 μM, 6 hours, no serum
[5] = target: T2, p53-Mdm4 complexes; experiment: BiLC assay using cell lysates, p53-Mdm4; type: biochemical
[6] = tested on: Normal human fibroblasts (WS1 cells); experiment: Lactate dehydrogenase (LDH) leakage assay, WS1 fibroblasts; type: cell-based; details: 25 μM and 10 μM, 6 hours, no serum

With `CC(=O)N[C@@H](CC(C)C)C(=O)N[C@H](C(=O)N[C@@H](Cc1ccccc1)C(=O)N[C@]1(C)CCCCCCC=CCCC[C@@](C)(C(=O)N[C@@H](CO)C(=O)N[C@@H](C)C(=O)N[C@@H](C)C(N)=O)NC(=O)[C@H](CC2CCC2)NC(=O)[C@H](CCC(N)=O)NC(=O)[C@H](C)NC(=O)[C@H](Cc2c[nH]c3ccccc23)NC(=O)[C@H](Cc2ccc(O)cc2)NC(=O)[C@H](CCC(=O)O)NC1=O)[C@@H](C)O` the “Disruption of pre-formed p53-Mdm2 complexes in living cells, 10% FBS” value ([1]; Saos-2 134-385, doxycycline withdrawal, SAH peptide protocol, 10% FBS media) was “reduced the effectiveness”, the “Disruption of pre-formed p53-Mdm2 complexes in living cells, without serum” value ([1]; Saos-2 134-385, doxycycline withdrawal, media lacking serum) was “increased activity” and the “Time to reach full p53-Mdm2 inhibition” value ([1]; living Saos-2 cells, 10 μM, 10% FBS (FIG. 3A, 3B)) was 4 h. The “p53-Mdm2 disruption in lysate BiLC assay, 10% FBS” value ([2]; 10% FBS added) was “did not reduce the potency”, the “p53-Mdm2 disruption in lysate BiLC assay, without FBS” value ([2]; no FBS) was “potent” and the “Disruption of pre-formed p53-Mdm4 complexes in living cells, 10% FBS” value [3] was “only marginal activity”. For the same compound, the “Disruption of pre-formed p53-Mdm4 complexes in living cells, 10% FBS” value ([3]; listed as ATSP-704125) was “reduced the effectiveness”, the “Disruption of pre-formed p53-Mdm4 complexes in living cells, without serum” value ([3]; media lacking serum) was “increased activity” and the “LDH leakage (cell membrane damage), absence of serum” value [4] was “cause LDH leakage”. The “p53-Mdm4 disruption in lysate BiLC assay, 10% FBS” value ([5]; 10% FBS added) was “did not reduce the potency”, the “p53-Mdm4 disruption in lysate BiLC assay, without FBS” value ([5]; no FBS) was “potent” and the “LDH leakage (cell membrane damage), absence of serum” value [6] was “cause LDH leakage”.
